The series deals with Caco-2 cells. Description: Caco-2 permeability assay. The format is in vitro ADME, human. As to conditions: Caco-2 monolayer, donor 10 μM, 90 minutes, 37° C., pH 7.4. An excerpt: Caco-2 Permeability Assay
• The Caco-2 monolayer is widely used across the pharmaceutical industry as an in vitro model of the human small intestinal mucosa to predict the absorption of orally administered drugs.^1-4 • The Caco-2 cell model mimics processes such as transcellular transport, paracellular transport, and some aspects of efflux and active transport. • Readout: Papp (A→B), Papp (B→A), Efflux ratio, % Recovery • Controls: with and without Pgp inhibitor; Atenolol, Propanolol, Taxel-1 Assay Description:
The Caco-2 cells are cultured to confluency, trypsinized and seeded onto a filter transwell insert at a density of ^˜32,000 cells/well in DMEM cell culture medium. […]
At the end of the incubation, samples are taken from both donor and receiver compartments and transferred into 96-well assay plates containing internal standard solution (IS) in each well. After centrifugation, the supernatant solutions are transferred to clean 96 well plates and analyzed by LC-MS/MS. […] Each compound is analyzed by reversed phase HPLC.
The parameters Papp (apparent permeability) and efflux ratio are calculated as follows: Papp=(dQ/dt)×(1/C0)×(1/A) Efflux ratio=Papp[B→A]/Papp[A→B] • where dQ/dt is the permeability rate, C0 is the initial concentration in the donor compartment, and A is the surface area of the cell monolayer (0.33 cm^2). The Papp value is a rate measured in cm/s. […]
In general terms: Caco-2 monolayers are a common model of the intestinal barrier.

The source of these data is patent publication US12030868B2, “Prodrugs of CGRP antagonists” (Pfizer Ireland Pharmaceuticals, priority 2018, dated 2024).

“(R)-(7-methyl-5-(3-(4-(1-methylpiperidin-4-yl)piperazin-1-yl)-3-oxo-2-(4-(2-oxo-1,2-dihydroquinolin-3-yl)piperidine-1-carboxamido)propyl)-1H-indazol-1-yl)methyl decanoate and (R)-(7-methyl-5-(3-(4-(1-methylpiperidin-4-yl)piperazin-1-yl)-3-oxo-2-(4-(2-oxo-1,2-dihydroquinolin-3-yl)piperidine-1-carboxamido)propyl)-2H-indazol-2-yl)methyl decanoate [Example 53]”: under “apical to basolateral”, the “Papp A-B” value stood at 0.31 ×10⁻⁶ cm/s. Besides, where the note is “basolateral to apical”, the “Papp B-A” value was found to be 4.1 ×10⁻⁶ cm/s.
